In PubChem BioAssay (NCI) one finds growth data, which are given here for nine compounds.

Each structure is given as a SMILES string. Only a part is listed here, and it is no random draw. Some tests of the compounds listed are not included; inactive here does not mean inactive elsewhere.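 In brief: 96-well plates, 48 h treatment, single concentration, percent growth endpoint.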 Active and inactive are the calls of the source. Rule for the calls: active = growth percent below 10; inactive = the rest.

Common to all, as to assay: NCI-60 one-dose screen, 48 h (100 = growth as untreated, 0 = no growth, -100 = all killed)
What all share (settings): 10 µM

Test [1] relates to MOLT-4 leukemia.
The subject of test [2] is SR leukemia.
The subject of test [3] is RPMI-8226 leukemia.
Test [4] has as its system OVCAR-8 ovarian.
In test [5] the test system is OVCAR-5 ovarian.
Test [6] relates to OVCAR-4 ovarian.
For test [7], the system named is SK-OV-3 ovarian.
Test [8] concerns IGROV1 ovarian.
The subject of test [9] is OVCAR-3 ovarian.
Test [10] concerns HS 578T breast.
Test [11] deals with NCI/ADR-RES ovarian.
Test [12] deals with T-47D breast.
Test [13] has as its system BT-549 breast.
Test [14] relates to MDA-MB-435 melanoma.
In test [15] the test system is SW-620 colon.
Test [16] concerns MCF7 breast.
Test [17] deals with HCT-116 colon.
Test [18] deals with HCC-2998 colon.
Test [19] relates to KM12 colon.

For `ClCCN(CCCl)C1c2ccccc2-c2ccccc21`, the growth is inactive: 52.2% in test [1]; inactive: 48.3% in test [2]; inactive: 85% in test [3]; inactive: 86.3% in test [4]; inactive: 98.4% in test [5]; inactive: 95.3% in test [6]. Moreover, the growth is inactive: 88.3% in [7]; inactive: 73.3% in test [8]; inactive: 95.3% in test [9]; inactive: 93.1% in test [10]; inactive: 92% in [11]; inactive: 79.8% in test [12]. Moreover, the growth in test [13] was inactive: 100%; in [14], inactive: 100%; in test [15], inactive: 85.3%; in test [16] it was inactive: 63.4%; in [17], inactive: 85.3%; in [18], inactive: 90.2%. Also, the growth in test [19] is inactive: 98.7%.

Take `BrCCN(CCBr)Cc1ccccc1`: the growth in test [1] is inactive: 100%; in test [2], inactive: 97%; in test [3], inactive: 97.4%; in test [4] it was inactive: 108%; in test [5], inactive: 86%; in test [6] it was inactive: 96.9%. For the same compound, the growth in test [7] is inactive: 114%; in test [8], inactive: 116%; in test [9], inactive: 101%; in test [11], inactive: 111%; in test [12] it was inactive: 108%; in test [13], inactive: 104%. Also, the growth in [14] is inactive: 99.5%; in [15] it was inactive: 103%; in test [16], inactive: 99%; in test [17] it was inactive: 112%; in test [18], inactive: 109%; in test [19], inactive: 115%.

In the case of `O=C(OCCN1CCCC1)C(O)(c1ccccc1)c1ccccc1`, the growth is inactive: 115% in test [1]; inactive: 95.7% in [3]; inactive: 102% in test [5]; inactive: 111% in [6]; inactive: 96.7% in [7]; inactive: 117% in [9]. Further, the growth is inactive: 115% in test [10]; inactive: 106% in [11]; inactive: 96.7% in [12]; inactive: 105% in test [13]; inactive: 110% in test [14]; inactive: 109% in [15]. Further, the growth in test [16] is inactive: 107%; in test [17] it was inactive: 110%; in test [19], inactive: 109%.

Take `CN(CCBr)CCBr`: the growth is inactive: 80.6% in test [1]; inactive: 12.8% in test [2]; inactive: 95.5% in test [3]; inactive: 96.4% in test [4]; inactive: 106% in [5]; inactive: 89.2% in test [6]. Further, the growth in [7] was inactive: 115%; in test [8] it was inactive: 79.2%; in test [9], inactive: 104%; in [10], inactive: 107%; in [11], inactive: 107%; in test [12] it was inactive: 84.6%. Besides, the growth in test [13] is inactive: 94.7%; in test [14] it was inactive: 99.9%; in [15], inactive: 82.5%; in test [16], inactive: 72.1%; in [17], inactive: 86.9%; in test [18], inactive: 100%. Moreover, in test [19], the growth is inactive: 106%.

As for `Fc1cccc(CN(CCCl)CCCl)c1`, the growth is inactive: 80.3% in test [1]; active: 3.67% in [2]; inactive: 99.1% in test [3]; inactive: 96.3% in [4]; inactive: 112% in test [5]; inactive: 104% in [6]. The growth in test [7] was inactive: 97.5%; in test [8], inactive: 76.4%; in test [9] it was inactive: 95.1%; in test [10] it was inactive: 110%; in test [11], inactive: 93.4%; in [12], inactive: 98.6%. Further, the growth in [13] was inactive: 93.8%; in test [14], inactive: 98.1%; in test [15] it was inactive: 90%; in [16], inactive: 76.2%; in test [17], inactive: 90.5%; in test [18], inactive: 85.7%. Also, the growth in [19] is inactive: 104%.

Take `ClCCN(CCCl)Cc1cc(Cl)cc(Cl)c1`: the growth was inactive: 18.3% in [1]; active: 6.6% in test [2]; inactive: 70.6% in test [3]; inactive: 70.1% in [4]; inactive: 105% in test [5]; inactive: 88.3% in [6]. In addition, the growth in [7] was inactive: 65.3%; in [8], inactive: 66%; in test [9], inactive: 86.2%; in test [10] it was inactive: 95.4%; in test [11], inactive: 76.8%; in test [12] it was inactive: 65.2%. The growth in test [13] was inactive: 84.5%; in [14] it was inactive: 76.2%; in [15], inactive: 58.3%; in test [16], inactive: 44%; in [17] it was inactive: 62.2%; in [18], inactive: 73.8%. The growth in test [19] was inactive: 89.9%.

Turning to `N#CC(C#N)=Cc1ccccc1Cl`, the growth in test [3] was inactive: 103%; in test [4] it was inactive: 110%; in test [5], inactive: 115%; in test [6], inactive: 109%; in test [7], inactive: 91.5%; in test [9], inactive: 107%. In addition, the growth in test [10] was inactive: 128%; in test [11] it was inactive: 104%; in test [12] it was inactive: 97.7%; in test [13], inactive: 108%; in test [14], inactive: 112%; in test [15] it was inactive: 116%. The growth in [16] was inactive: 95.5%; in test [17], inactive: 103%; in test [18], inactive: 106%; in test [19], inactive: 106%.

In the case of `N#CC(C#N)=Cc1cccc(Br)c1`, the growth is inactive: 101% in test [1]; inactive: 97% in test [3]; inactive: 104% in [4]; inactive: 104% in [5]; inactive: 102% in test [6]; inactive: 104% in test [7]. Also, the growth was inactive: 113% in [8]; inactive: 110% in test [9]; inactive: 96.2% in test [10]; inactive: 109% in [11]; inactive: 89% in [12]; inactive: 99% in test [13]. Also, the growth in test [14] was inactive: 104%; in test [15] it was inactive: 102%; in [16], inactive: 96.6%; in test [17] it was inactive: 94.1%; in test [18], inactive: 108%; in test [19], inactive: 108%.

`CN(C)CCOC(=O)C(O)(c1ccccc1)c1ccccc1`: the growth in [1] was inactive: 49.9%; in test [2] it was inactive: 77.6%; in test [3], inactive: 118%; in [4], inactive: 107%; in test [5], inactive: 102%; in [6] it was inactive: 112%. Also, the growth is inactive: 119% in test [7]; inactive: 85.8% in test [8]; inactive: 111% in [9]; inactive: 130% in [10]; inactive: 113% in test [11]; inactive: 113% in test [12]. The growth in test [13] is inactive: 112%; in [14], inactive: 93.7%; in test [15], inactive: 114%; in test [16] it was inactive: 109%; in test [17], inactive: 112%; in test [18], inactive: 117%. In addition, the growth in test [19] is inactive: 112%.
